Assay [1] has as its target T1, Lethal(3)malignant brain tumor-like protein 3 (Homo sapiens, UniProt Q96JM7).
T1 sequence (Q96JM7 whole entry): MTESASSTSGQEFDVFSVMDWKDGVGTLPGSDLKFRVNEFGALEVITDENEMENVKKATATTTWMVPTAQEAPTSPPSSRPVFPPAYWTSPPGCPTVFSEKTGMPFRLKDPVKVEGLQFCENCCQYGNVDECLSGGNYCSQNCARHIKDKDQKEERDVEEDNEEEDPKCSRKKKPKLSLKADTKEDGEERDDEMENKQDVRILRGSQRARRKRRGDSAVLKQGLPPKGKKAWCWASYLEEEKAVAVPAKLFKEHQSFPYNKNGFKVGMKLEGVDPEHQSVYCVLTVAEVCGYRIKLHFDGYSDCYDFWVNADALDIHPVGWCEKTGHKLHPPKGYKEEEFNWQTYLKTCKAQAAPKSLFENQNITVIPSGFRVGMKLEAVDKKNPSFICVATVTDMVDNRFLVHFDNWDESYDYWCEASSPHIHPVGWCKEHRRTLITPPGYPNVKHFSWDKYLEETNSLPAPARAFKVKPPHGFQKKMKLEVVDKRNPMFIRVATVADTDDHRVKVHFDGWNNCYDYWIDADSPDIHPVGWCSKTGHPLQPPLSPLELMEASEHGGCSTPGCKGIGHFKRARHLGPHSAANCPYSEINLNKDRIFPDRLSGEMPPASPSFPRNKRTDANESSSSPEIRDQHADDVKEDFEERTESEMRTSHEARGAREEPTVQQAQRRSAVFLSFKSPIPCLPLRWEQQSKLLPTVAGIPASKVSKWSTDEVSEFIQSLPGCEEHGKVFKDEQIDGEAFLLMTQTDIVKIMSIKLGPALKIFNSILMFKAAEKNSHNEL
As to the kind of experiment: Inhibition of L3MBTL3 (unknown origin) after 30 mins by AlphaScreen assay.

Protein sequences, listed by entry. Tags and fused reporters are not part of them.
UniProt Q05BQ5, whole entry: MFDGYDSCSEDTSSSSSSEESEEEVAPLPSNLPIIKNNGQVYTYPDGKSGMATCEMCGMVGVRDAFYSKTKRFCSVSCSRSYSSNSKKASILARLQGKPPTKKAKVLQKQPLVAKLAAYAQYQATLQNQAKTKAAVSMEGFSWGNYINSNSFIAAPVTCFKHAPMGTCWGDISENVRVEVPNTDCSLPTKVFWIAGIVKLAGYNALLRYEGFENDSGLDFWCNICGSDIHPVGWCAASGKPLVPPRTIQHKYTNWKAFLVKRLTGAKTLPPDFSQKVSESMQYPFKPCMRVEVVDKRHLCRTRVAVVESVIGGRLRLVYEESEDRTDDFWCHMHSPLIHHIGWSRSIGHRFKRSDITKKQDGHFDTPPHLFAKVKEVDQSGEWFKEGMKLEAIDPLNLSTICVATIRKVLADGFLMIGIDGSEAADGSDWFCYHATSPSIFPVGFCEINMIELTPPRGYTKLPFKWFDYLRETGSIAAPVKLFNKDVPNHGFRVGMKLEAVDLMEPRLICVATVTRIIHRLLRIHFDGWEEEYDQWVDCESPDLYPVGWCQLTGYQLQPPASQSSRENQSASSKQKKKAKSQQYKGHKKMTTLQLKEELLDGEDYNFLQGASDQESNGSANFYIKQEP

Assay [2] addresses MBT domain-containing protein 1 (Homo sapiens, UniProt Q05BQ5). The assay is described as follows: Inhibition of MBTD1 (unknown origin) after 30 mins by AlphaScreen assay. (In general: In Alpha technology, singlet oxygen from a donor bead excites a nearby acceptor bead.)
Assay [3] addresses T2, Lethal(3)malignant brain tumor-like protein 4 (Homo sapiens, UniProt Q8NA19).
T2 sequence (Q8NA19 whole entry): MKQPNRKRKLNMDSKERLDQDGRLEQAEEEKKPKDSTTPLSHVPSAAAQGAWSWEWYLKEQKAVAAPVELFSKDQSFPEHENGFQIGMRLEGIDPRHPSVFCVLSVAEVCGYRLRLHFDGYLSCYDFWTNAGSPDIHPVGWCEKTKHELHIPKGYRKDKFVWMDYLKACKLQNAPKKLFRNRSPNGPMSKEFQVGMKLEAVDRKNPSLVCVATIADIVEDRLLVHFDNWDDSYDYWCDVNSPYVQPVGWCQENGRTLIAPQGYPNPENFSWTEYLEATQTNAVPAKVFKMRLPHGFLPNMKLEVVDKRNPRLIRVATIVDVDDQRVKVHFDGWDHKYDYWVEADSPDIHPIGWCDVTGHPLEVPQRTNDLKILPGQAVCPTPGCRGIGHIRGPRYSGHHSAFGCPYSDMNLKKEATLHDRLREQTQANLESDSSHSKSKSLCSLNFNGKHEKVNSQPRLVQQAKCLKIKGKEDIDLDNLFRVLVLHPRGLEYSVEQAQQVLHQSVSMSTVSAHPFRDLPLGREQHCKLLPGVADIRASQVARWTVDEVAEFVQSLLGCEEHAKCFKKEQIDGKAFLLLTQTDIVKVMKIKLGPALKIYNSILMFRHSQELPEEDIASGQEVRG
The assay is described as follows: Inhibition of L3MBTL4 (unknown origin) after 30 mins by AlphaScreen assay.

Assay [4] addresses T3, Chromobox protein homolog 7 (Homo sapiens, UniProt O95931).
T3 sequence (O95931 whole entry): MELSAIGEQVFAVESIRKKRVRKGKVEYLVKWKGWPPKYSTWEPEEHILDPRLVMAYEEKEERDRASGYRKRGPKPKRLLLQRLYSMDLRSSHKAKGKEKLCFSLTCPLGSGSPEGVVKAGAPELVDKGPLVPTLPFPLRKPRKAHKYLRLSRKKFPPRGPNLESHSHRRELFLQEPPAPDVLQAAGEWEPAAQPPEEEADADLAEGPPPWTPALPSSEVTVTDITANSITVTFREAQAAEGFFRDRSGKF
The assay is described as follows: Inhibition of CBX7 (unknown origin) after 30 mins by AlphaScreen assay.

Some results are limits rather than exact numbers.

As a reminder, the IC50 is the concentration that gives 50% inhibition. As for `O=C(c1cccc(Br)c1)N1CCC(C2CCCN2)CC1` (centres undefined), the IC50 in assay [1] is > 30 µM.
Consider `O=C(c1ccc(C(=O)N2CCN(C3CCCC3)CC2)cc1)N1CCC(N2CCCC2)CC1`, for which the IC50 in assay [2], in assay [3] and in assay [4] was > 10 µM throughout.
